Laboratory results published in publication PMC3227451, “Structure-based development of novel sirtuin inhibitors” (Aging (Albany NY), 2011).

Sequences of proteins named here, by UniProt entry; tags and fusion partners are left off. Residues count along the entry.
UniProt Q8IXJ6, 34-356 limits assumed: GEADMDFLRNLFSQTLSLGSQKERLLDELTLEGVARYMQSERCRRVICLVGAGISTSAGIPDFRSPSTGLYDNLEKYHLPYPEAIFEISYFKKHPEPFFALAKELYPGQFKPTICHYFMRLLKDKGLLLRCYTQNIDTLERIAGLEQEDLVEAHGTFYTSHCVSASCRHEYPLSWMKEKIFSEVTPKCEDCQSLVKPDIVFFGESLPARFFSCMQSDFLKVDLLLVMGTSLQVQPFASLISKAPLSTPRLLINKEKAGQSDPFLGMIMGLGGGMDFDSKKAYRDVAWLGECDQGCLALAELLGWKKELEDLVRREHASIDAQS
UniProt Q9NTG7, 114-399 limits assumed: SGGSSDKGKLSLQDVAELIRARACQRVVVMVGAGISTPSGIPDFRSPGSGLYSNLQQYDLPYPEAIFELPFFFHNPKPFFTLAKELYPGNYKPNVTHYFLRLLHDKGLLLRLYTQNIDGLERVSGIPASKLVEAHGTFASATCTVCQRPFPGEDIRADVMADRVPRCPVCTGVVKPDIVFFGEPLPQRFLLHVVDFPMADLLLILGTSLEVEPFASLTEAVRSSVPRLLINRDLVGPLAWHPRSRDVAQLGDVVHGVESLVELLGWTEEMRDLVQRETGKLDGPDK
UniProt Q8N6T7, 13-308 limits assumed: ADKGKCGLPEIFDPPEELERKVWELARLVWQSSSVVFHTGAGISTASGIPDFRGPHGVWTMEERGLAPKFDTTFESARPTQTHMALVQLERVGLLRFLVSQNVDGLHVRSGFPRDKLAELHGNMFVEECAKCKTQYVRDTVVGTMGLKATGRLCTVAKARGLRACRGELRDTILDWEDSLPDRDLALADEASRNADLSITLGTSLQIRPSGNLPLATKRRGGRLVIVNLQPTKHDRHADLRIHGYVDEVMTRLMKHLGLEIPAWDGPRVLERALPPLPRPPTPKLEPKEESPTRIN
UniProt Q9NXA8, 34-302 limits assumed: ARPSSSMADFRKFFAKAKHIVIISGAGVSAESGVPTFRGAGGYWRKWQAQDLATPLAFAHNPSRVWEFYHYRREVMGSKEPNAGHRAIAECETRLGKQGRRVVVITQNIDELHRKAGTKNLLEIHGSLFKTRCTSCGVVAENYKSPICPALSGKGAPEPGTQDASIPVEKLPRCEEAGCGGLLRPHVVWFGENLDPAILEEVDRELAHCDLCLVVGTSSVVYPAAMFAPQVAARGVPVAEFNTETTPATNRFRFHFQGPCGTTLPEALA

Columns and labels:
Type in all cases: biochemical
Sirt2 = Sirt2 (Homo sapiens, UniProt Q8IXJ6); test: Fluor-de-Lys peptide deacetylation assay, Sirt2; settings: 100 μM compound; 0.1 mM FdL-2 peptide, 0.5 mM NAD+
Sirt3 = Sirt3 (Homo sapiens, UniProt Q9NTG7); test: Fluor-de-Lys peptide deacetylation assay, Sirt3; settings: 100 μM compound; 0.1 mM FdL-2 peptide, 0.5 mM NAD+
Sirt6 = Sirt6 (Homo sapiens, UniProt Q8N6T7); test: Fluor-de-Lys peptide deacetylation assay, Sirt6; settings: 100 μM compound; 0.1 mM FdL-1 peptide, 0.5 mM NAD+
Sirt5 = Sirt5 (Homo sapiens, UniProt Q9NXA8); test: Fluor-de-Lys peptide deacetylation assay, Sirt5; settings: 100 μM compound; 0.1 mM FdL-1 peptide, 0.5 mM NAD+

N1=C(c2nnn[nH]2)NNC(c2nnn[nH]2)=N1
--- (no such effect): Effect on the activity of Sirt2 (Sirt2) | Effect on the activity of Sirt3 (Sirt3) | Effect on the activity of Sirt6 (Sirt6) | Effect on the activity of Sirt5 (Sirt5)
